Literature values, collected in patent US20040253307A1.
This is a selection: effects in other tests are not listed, and their absence says nothing.

Conditions: dependence on pH

With `CCC(=O)N(c1ccccc1)C1CCN(CCc2ccccc2)CC1` as the molecule, how does the aqueous solubility read?
Its aqueous solubility is “decreases sharply at a pH above 6”.
